pIC50: −log10 of the molar value.

By UniProt entry, the sequences of proteins in these tests, tags left out. Where a name states a change or a piece, a line headed by the entry shows the natural chain unless it says otherwise. Residues count along the entry.
UniProt O15530, 51-556: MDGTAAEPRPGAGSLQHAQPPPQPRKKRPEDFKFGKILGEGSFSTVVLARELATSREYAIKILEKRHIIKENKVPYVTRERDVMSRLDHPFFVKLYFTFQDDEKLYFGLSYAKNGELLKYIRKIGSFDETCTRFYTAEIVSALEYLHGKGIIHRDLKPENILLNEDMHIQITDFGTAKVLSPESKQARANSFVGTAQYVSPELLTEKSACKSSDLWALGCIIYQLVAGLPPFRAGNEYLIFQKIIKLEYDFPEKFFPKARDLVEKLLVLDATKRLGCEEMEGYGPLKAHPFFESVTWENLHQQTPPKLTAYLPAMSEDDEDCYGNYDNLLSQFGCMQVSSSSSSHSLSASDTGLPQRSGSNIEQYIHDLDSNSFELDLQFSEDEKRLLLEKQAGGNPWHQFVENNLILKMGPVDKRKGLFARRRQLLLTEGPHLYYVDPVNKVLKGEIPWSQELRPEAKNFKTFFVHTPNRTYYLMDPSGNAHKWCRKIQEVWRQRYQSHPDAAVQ

The term pIC50 denotes the negative decadic logarithm of the IC50, by convention in mol/L. A low value points to a high IC50.

The target of one test is PDK1 (His6-PDK1(Δ1-50)) (Homo sapiens (Human), UniProt O15530). In words: Test for the inhibition of PDK1 (enzymatic, flashplate, 33P-ATP). Conditions: enzymatic PDK1 inhibition assay. The class given is biochemical. On the procedure: 4. Test for the Inhibition of PDK1
The experimental batches are carried out in a flashplate system with 384 wells/microtitration plate.
In each case, the PDK1 sample His6-PDK1(Δ1-50) (3.4 nM) (“His6” disclosed as SEQ ID NO: 2), the PDK1 substrate biotin-bA-bA-[…]-IADWC (SEQ ID NO: 3) (400 nM), 4 μM ATP (with 0.2 μCi of ^33P-ATP/well) and the test substance in 50 μl of conventional experimental solution per well are incubated at 30° C. for 60 min. The test substances are employed in corresponding concentrations (if desired in a dilution series). The control is carried out without test substance. The reaction is stopped using standard methods and washed. The activity of the kinase is measured via the incorporated radioactivity in top count. […]
The radioactivity (decompositions per minute) of the blank value (no use of test substance in the presence of staurosporine) is subtracted from all other radioactivity values. The controls (kinase activity without test substance) are set equal to 100 percent and all other radioactivity values (after subtracting the blank value) are expressed set in relation thereto (for example in % of the control).
IC50 values (50% inhibition) are determined with the aid of statistics programmes, such as, for example, RS1.

Test [1] addresses PDK1 kinase in PC3 cells (PKB phosphorylation at Thr 308) (Homo sapiens (Human), UniProt O15530). Description: Cellular testing of PDK1 kinase inhibitors in PC3 cells (Luminex, phospho-T308-PKB). It counts as cell-based. As to conditions: PKB phosphorylation at Thr 308 in PC3 cells. On the procedure: Method for the Cellular Testing of PDK1 Kinase Inhibitors in PC3 Cells
The cellular assay for the determination of the PDK1 kinase activity is carried out as a Luminex assay in the 96-well format. PC3 cells are sown at 20,000 cells per well in 100 μl of medium (45% of […]/45% of Ham's F12/10% of FCS) and incubated on the following day for 30 min with a serial dilution of the test substance (7 concentrations) under serum-free conditions. The cells are subsequently lysed using 90 μl of lysis buffer (20 mM tris/HCl pH 8.0, 150 mM NaCl, 1% of NP40, 10% of glycerol, 1% of phosphatase inhibitor I, 1% of phosphatase inhibitor II, 0.1% of protease inhibitor cocktail III, 0.01% of benzonase) per well, and the lysates are separated off from insoluble cell constituents by means of centrifugation through a 96-well filter plate (0.65 μm). The lysates are incubated overnight at 4° C. with shaking with Luminex beads to which an anti-total PKB antibody is coupled. The detection is carried out on the following day by addition of a phospho-T308-PKB antibody and a species-specific peroxidase-labelled secondary antibody. […] The values of the batches treated with test substance are calculated therefrom as percentage of control, and IC50 values are determined by means of RS1.

Take “3-({2-Amino-6-[5-(1-methyl-1H-pyrazol-4-yl)-1H-pyrrolo[2,3-b]-pyridin-3-yl]pyrimidin-4-yl}phenylamino)propionamide [A35]”: the pIC50 is 7.77 against PDK1 (His6-PDK1(Δ1-50)) and 4.64 in test [1].

`CC(C)n1cc(-c2cnc3[nH]cc(-c4cc(N(CCO)c5ccccc5Cl)nc(N)n4)c3c2)cn1` [A15, 2-[{2-Amino-6-[5-(1-isopropyl-1H-pyrazol-4-yl)-1H-pyrrolo[2,3-b]pyridin-3-yl]pyrimidin-4-yl)-(2-chlorophenyl)amino]-ethanol] had a pIC50 against PDK1 (His6-PDK1(Δ1-50)) of 7.77.

The values are drawn from patent publication US8664236B2, “1H-pyrrolo[2,3 b]-pyridine derivatives” (Merck Patent GmbH, priority 2010, dated 2014).
